# According to patent US5424292A (Depha Team s.r.l., priority 1990, dated 1995):
# Conditions: male Fischer rats, doses equivalent to 60 mg/kg of 5-ASA via metal probe into stomach; for Recovery percentages of 5-ASA + N-acetyl-5-ASA in feces by HPLC: feces withdrawn at 2 hour intervals for 48 hours; for Recovery percentages of 5-ASA + N-acetyl-5-ASA in urine by HPLC: urine withdrawn at 2 hour intervals for 48 hours
substance,measurement,value
5-aminosalicyl L-proline-L-leucine [Compound 4],Recovery percentages of 5-ASA + N-acetyl-5-ASA in feces by HPLC,25 ± 4%
same,Recovery percentages of 5-ASA + N-acetyl-5-ASA in urine by HPLC,53 ± 3%
(N-L-aspartyl)-amino-2-salicylic acid [Compound 3],Recovery percentages of 5-ASA + N-acetyl-5-ASA in feces by HPLC,46 ± 3%
same,Recovery percentages of 5-ASA + N-acetyl-5-ASA in urine by HPLC,33 ± 3%
